ChEMBL document CHEMBL2029289, “Structure-activity relationship study of a CXC chemokine receptor type 4 antagonist, FC131, using a series of alkene dipeptide isosteres” (J Med Chem, 2012)

Amino acid sequences for entries named in this document (tags omitted).
UniProt P61073, whole entry: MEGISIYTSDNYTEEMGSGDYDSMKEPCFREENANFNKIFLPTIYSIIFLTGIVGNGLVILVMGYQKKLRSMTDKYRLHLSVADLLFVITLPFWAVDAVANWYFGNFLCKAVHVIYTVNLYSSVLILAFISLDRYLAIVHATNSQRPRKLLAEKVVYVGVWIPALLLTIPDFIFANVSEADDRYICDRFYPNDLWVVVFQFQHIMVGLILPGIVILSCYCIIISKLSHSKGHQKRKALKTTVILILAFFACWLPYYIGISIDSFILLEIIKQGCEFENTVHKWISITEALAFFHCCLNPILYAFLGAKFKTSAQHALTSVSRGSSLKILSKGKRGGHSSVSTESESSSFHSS

Molecular target: C-X-C chemokine receptor type 4 (Homo sapiens, UniProt P61073)
Experiment: Displacement of [125I]SDF-1alpha from CXCR4 expressed in HEK293 cell membrane after 1 hr
Assay type: cell membranes

IC50: 84 nM
Structure (SMILES): N=C(N)NCCC[C@@H]1NC(=O)[C@H](CCCNC(=N)N)NC(=O)[C@@H](Cc2ccc(O)cc2)NC(=O)CNC(=O)[C@H](Cc2ccc3ccccc3c2)NC1=O
